The values that follow come from article PMC5934274.

Substrate in the data set: NC(=O)c1ccc[n+]([C@@H]2O[C@H](COP(=O)([O-])OP(=O)(O)OC[C@H]3O[C@@H](n4cnc5c(N)ncnc54)[C@H](O)[C@@H]3O)[C@@H](O)[C@H]2O)c1
Description: purified protein, by the assay type.

B1: PARP10 (Homo sapiens) (protein)
chain: NLERLAENTGEFQEVVRAFYDTLDAARSSIRVVRVERVSHPLLQQQYELYRERLLQRCERRPVEQVLYHGTTAPAVPDICAHGFNRSFCGRNATVYGKGVYFARRASLSVQDRYSPPNADGHKAVFVARVLTGDYGQGRRGLRAPPLRGPGHVLLRYDSAVDCICQPSIFVIFHDTQALPTHLITCEHV
Consider B1, for which the Michaelis-Menten constant (Km) (in general, the substrate concentration at which the rate is half of its maximum) (other: PARP10 ART) was 90 ± 27 µM.

B2: PARP2 (Homo sapiens) (protein)
chain: MAARRRRSTGGGRARALNESKRVNNGNTAPEDSSPAKKTRRCQRQESKKMPVAGGKANKDRTEDKQDGMPGRSWASKRVSESVKALLLKGKAPVDPECTAKVGKAHVYCEGNDVYDVMLNQTNLQFNNNKYYLIQLLEDDAQRNFSVWMRWGRVGKMGQHSLVACSGNLNKAKEIFQKKFLDKTKNNWEDREKFEKVPGKYDMLQMDYATNTQDEEETKKEESLKSPLKPESQLDLRVQELIKLICNVQAMEEMMMEMKYNTKKAPLGKLTVAQIKAGYQSLKKIEDCIRAGQHGRALMEACNEFYTRIPHDFGLRTPPLIRTQKELSEKIQLLEALGDIEIAIKLVKTELQSPEHPLDQHYRNLHCALRPLDHESYEFKVISQYLQSTHAPTHSDYTMTLLDLFEVEKDGEKEAFREDLHNRMLLWHGSRMSNWVGILSHGLRIAPPEAPITGYMFGKGIYFADMSSKSANYCFASRLKNTGLLLLSEVALGQCNELLEANPKAEGLLQGKHSTKGLGKMAPSSAHFVTLNGSTVPLGPASDTGILNPDGYTLNYNEYIVYNPNQVRMRYLLKVQFNFLQLW
On to B2, for which the Michaelis constant (Km) (other: PARP2 FL) came to 1.9 ± 0.5 µM.

B3: PARP3 (Homo sapiens) (protein)
chain: MAPKPKPWVQTEGPEKKKGRQAGREEDPFRSTAEALKAIPAEKRIIRVDPTCPLSSNPGTQVYEDYNCTLNQTNIENNNNKFYIIQLLQDSNRFFTCWNRWGRVGEVGQSKINHFTRLEDAKKDFEKKFREKTKNNWAERDHFVSHPGKYTLIEVQAEDEAQEAVVKVDRGPVRTVTKRVQPCSLDPATQKLITNIFSKEMFKNTMALMDLDVKKMPLGKLSKQQIARGFEALEALEEALKGPTDGGQSLEELSSHFYTVIPHNFGHSQPPPINSPELLQAKKDMLLVLADIELAQALQAVSEQEKTVEEVPHPLDRDYQLLKCQLQLLDSGAPEYKVIQTYLEQTGSNHRCPTLQHIWKVNQEGEEDRFQAHSKLGNRKLLWHGTNMAVVAAILTSGLRIMPHSGGRVGKGIYFASENSKSAGYVIGMKCGAHHVGYMFLGEVALGREHHINTDNPSLKSPPPGFDSVIARGHTEPDPTQDTELELDGQQVVVPQGQPVPCPEFSSSTFSQSEYLIYQESQCRLRYLLEVHL
Turning to B3, the Km amounted to 2170 ± 645 µM (other: PARP3 ART) and 131 ± 57 µM (other: PARP3 FL).

B4: PARP16 (Homo sapiens) (protein)
chain: MQPSGWAAAREAAGRDMLAADLRCSLFASALQSYKRDSVLRPFPASYARGDCKDFEALLADASKLPNLKELLQSSGDNHKRAWDLVSWILSSKVLTIHSAGKAEFEKIQKLTGAPHTPVPAPDFLFEIEYFDPANAKFYETKGERDLIYAFHGSRLENFHSIIHNGLHCHLNKTSLFGEGTYLTSDLSLALIYSPHGHGWQHSLLGPILSCVAVCEVIDHPDVKCQTKKKDSKEIDRRRARIKHSEGGDIPPKYFVVTNNQLLRVKYLLVYSQKPPKRASSQLSWFSSHWFTVMISLYLLLLLIVSVINSSAFQHFWNRAKR
As for B4, the Michaelis-Menten constant (Km) (other: PARP16 FL) was found to be 582 ± 196 µM.

B5: PARP15 (Homo sapiens) (protein)
chain: MAAPGPLPAAALSPGAPTPRELMHGVAGVTSRAGRDREAGSVLPAGNRGARKASRRSSSRSMSRDNKFSKKDCLSIRNVVASIQTKEGLNLKLISGDVLYIWADVIVNSVPMNLQLGGGPLSRAFLQKAGPMLQKELDDRRRETEEKVGNIFMTSGCNLDCKAVLHAVAPYWNNGAETSWQIMANIIKKCLTTVEVLSFSSITFPMIGTGSLQFPKAVFAKLILSEVFEYSSSTRPITSPLQEVHFLVYTNDDEGCQAFLDEFTNWSRINPNKARIPMAGDTQGVVGTVSKPCFTAYEMKIGAITFQVATGDIATEQVDVIVNSTARTFNRKSGVSRAILEGAGQAVESECAVLAAQPHRDFIITPGGCLKCKIIIHVPGGKDVRKTVTSVLEECEQRKYTSVSLPAIGTGNAGKNPITVADNIIDAIVDFSSQHSTPSLKTVKVVIFQPELLNIFYDSMKKRDLSASLNFQSTFSMTTCNLPEHWTDMNHQLFCMVQLEPGQSEYNTIKDKFTRTCSSYAIEKIERIQNAFLWQSYQVKKRQMDIKNDHKNNERLLFHGTDADSVPYVNQHGFNRSCAGKNAVSYGKGTYFAVDASYSAKDTYSKPDSNGRKHMYVVRVLTGVFTKGRAGLVTPPPKNPHNPTDLFDSVTNNTRSPKLFVVFFDNQAYPEYLITFTA
Regarding B5, the Km (other: PARP15 ART) came out at 11.0 ± 4.2 µM.

B6: PARP2 (Homo sapiens) (protein)
chain: DLRVQELIKLICNVQAMEEMMMEMKYNTKKAPLGKLTVAQIKAGYQSLKKIEDCIRAGQHGRALMEACNEFYTRIPHDFGLRTPPLIRTQKELSEKIQLLEALGDIEIAIKLVKTELQSPEHPLDQHYRNLHCALRPLDHESYEFKVISQYLQSTHAPTHSDYTMTLLDLFEVEKDGEKEAFREDLHNRMLLWHGSRMSNWVGILSHGLRIAPPEAPITGYMFGKGIYFADMSSKSANYCFASRLKNTGLLLLSEVALGQCNELLEANPKAEGLLQGKHSTKGLGKMAPSSAHFVTLNGSTVPLGPASDTGILNPDGYTLNYNEYIVYNPNQVRMRYLLKVQFNF
On to B6, for which, for the setting “other: PARP2 ART”, the Michaelis-Menten constant (Km) amounted to 159 ± 5 µM.

B7: PARP12 (Homo sapiens) (protein)
chain: MAQAGVVGEVTQVLCAAGGALELPELRRRLRMGLSADALERLLRQRGRFVVAVRAGGAAAAPERVVLAASPLRLCRAHQGSKPGCVGLCAQLHLCRFMVYGACKFLRAGKNCRNSHSLTTEHNLSVLRTHGVDHLSYNELCQLLFQNDPWLLPEICQHYNKGDGPHGSCAFQKQCIKLHICQYFLQGECKFGTSCKRSHDFSNSENLEKLEKLGMSSDLVSRLPTIYRNAHDIKNKSSAPSRVPPLFVPQGTSERKDSSGSVSPNTLSQEEGDQICLYHIRKSCSFQDKCHRVHFHLPYRWQFLDRGKWEDLDNMELIEEAYCNPKIERILCSESASTFHSHCLNFNAMTYGATQARRLSTASSVTKPPHFILTTDWIWYWSDEFGSWQEYGRQGTVHPVTTVSSSDVEKAYLAYCTPGSDGQAATLKFQAGKHNYELDFKAFVQKNLVYGTTKKVCRRPKYVSPQDVTTMQTCNTKFPGPKSIPDYWDSSALPDPGFQKITLSSSSEEYQKVWNLFNRTLPFYFVQKIERVQNLALWEVYQWQKGQMQKQNGGKAVDERQLFHGTSAIFVDAICQQNFDWRVCGVHGTSYGKGSYFARDAAYSHHYSKSDTQTHTMFLARVLVGEFVRGNASFVRPPAKEGWSNAFYDSCVNSVSDPSIFVIFEKHQVYPEYVIQYTTSSKPSVTPSILLALGSLFSSRQ
With B7, the Km (other: PARP12 ART) worked out at 299 ± 76 µM.

B8: PARP10 (Homo sapiens) (protein)
chain: MVAMAEAEAGVAVEVRGLPPAVPDELLTLYFENRRRSGGGPVLSWQRLGCGGVLTFREPADAERVLAQADHELHGAQLSLRPAPPRAPARLLLQGLPPGTTPQRLEQHVQALLRASGLPVQPCCALASPRPDRALVQLPKPLSEADVRVLEEQAQNLGLEGTLVSLARVPQARAVRVVGDGASVDLLLLELYLENERRSGGGPLEDLQRLPGPLGTVASFQQWQVAERVLQQEHRLQGSELSLVPHYDILEPEELAENTSGGDHPSTQGPRATKHALLRTGGLVTALQGAGTVTMGSGEEPGQSGASLRTGPMVQGRGIMTTGSGQEPGQSGTSLRTGPMGSLGQAEQVSSMPMGSLEHEGLVSLRPVGLQEQEGPMSLGPVGSAGPVETSKGLLGQEGLVEIAMDSPEQEGLVGPMEITMGSLEKAGPVSPGCVKLAGQEGLVEMVLLMEPGAMRFLQLYHEDLLAGLGDVALLPLEGPDMTGFRLCGAQASCQAAEEFLRSLLGSISCHVLCLEHPGSARFLLGPEGQHLLQGLEAQFQCVFGTERLATATLDTGLEEVDPTEALPVLPGNAHTLWTPDSTGGDQEDVSLEEVRELLATLEGLDLDGEDWLPRELEEEGPQEQPEEEVTPGHEEEEPVAPSTVAPRWLEEEAALQLALHRSLEPQGQVAEQEEAAALRQALTLSLLEQPPLEAEEPPDGGTDGKAQLVVHSAFEQDVEELDRALRAALEVHVQEETVGPWRRTLPAELRARLERCHGVSVALRGDCTILRGFGAHPARAARHLVALLAGPWDQSLAFPLAASGPTLAGQTLKGPWNNLERLAENTGEFQEVVRAFYDTLDAARSSIRVVRVERVSHPLLQQQYELYRERLLQRCERRPVEQVLYHGTTAPAVPDICAHGFNRSFCGRNATVYGKGVYFARRASLSVQDRYSPPNADGHKAVFVARVLTGDYGQGRRGLRAPPLRGPGHVLLRYDSAVDCICQPSIFVIFHDTQALPTHLITCEHVPRASPDDPSGLPGRSPDT
Take B8: under “other: PARP10 FL”, the Km was determined as 98 ± 11 µM.
